Laboratory results: ChEMBL document CHEMBL5380833, “Discovery of Potent and Highly Selective Interleukin-2-Inducible T-Cell Kinase Degraders with In Vivo Activity” (J Med Chem, 2023)

Chains of the proteins cited; added tags and fusions are not shown. Lines headed by an entry give the natural chain unless they say otherwise; changes in a name come on top.
UniProt Q08881: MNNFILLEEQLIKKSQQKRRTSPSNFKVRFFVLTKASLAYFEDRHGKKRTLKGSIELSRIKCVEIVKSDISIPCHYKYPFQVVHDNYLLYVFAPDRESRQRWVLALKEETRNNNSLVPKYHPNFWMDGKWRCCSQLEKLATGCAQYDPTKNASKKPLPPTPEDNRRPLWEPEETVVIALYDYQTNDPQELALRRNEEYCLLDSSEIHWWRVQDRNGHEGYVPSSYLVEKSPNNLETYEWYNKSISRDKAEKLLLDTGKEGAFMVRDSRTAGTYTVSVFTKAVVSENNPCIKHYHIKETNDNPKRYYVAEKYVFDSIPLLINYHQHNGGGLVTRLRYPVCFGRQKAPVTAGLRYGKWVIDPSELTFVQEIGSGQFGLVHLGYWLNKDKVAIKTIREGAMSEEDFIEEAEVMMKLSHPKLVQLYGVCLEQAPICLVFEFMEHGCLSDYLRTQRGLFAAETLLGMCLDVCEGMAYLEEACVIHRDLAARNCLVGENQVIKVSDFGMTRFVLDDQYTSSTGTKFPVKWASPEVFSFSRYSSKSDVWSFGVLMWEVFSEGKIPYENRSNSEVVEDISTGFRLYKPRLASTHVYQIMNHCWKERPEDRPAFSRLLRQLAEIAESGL
UniProt Q96SW2: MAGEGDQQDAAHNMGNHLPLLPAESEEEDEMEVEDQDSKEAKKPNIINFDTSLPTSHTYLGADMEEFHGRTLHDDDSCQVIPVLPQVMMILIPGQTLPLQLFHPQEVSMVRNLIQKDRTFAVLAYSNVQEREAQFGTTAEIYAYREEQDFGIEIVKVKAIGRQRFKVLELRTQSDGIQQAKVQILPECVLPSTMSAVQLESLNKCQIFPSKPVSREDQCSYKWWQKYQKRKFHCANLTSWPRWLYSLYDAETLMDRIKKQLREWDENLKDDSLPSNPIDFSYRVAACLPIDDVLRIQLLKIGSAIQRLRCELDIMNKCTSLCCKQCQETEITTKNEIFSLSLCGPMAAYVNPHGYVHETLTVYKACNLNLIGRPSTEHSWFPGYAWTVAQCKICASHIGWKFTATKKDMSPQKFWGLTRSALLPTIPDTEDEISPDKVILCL

Target: Protein cereblon/Tyrosine-protein kinase ITK/TSK (Homo sapiens, UniProt Q08881+Q96SW2)
Assay: PROTAC activity at CRBN/ITK in human Jurkat cells assessed as maximum degradation at 0.01 to 10 uM by Western blot analysis relative to control
Assay type: cell-based
Details: dose 0.01-10 µM

Emax: inactive
Compound: CN(CCCCCC(=O)Nc1ccc2c(c1)C(=O)N(C1CCC(=O)N(C)C1=O)C2=O)CC[C@@H](c1ccccc1)n1cc(NC(=O)c2n[nH]c3c2CCC(C)(C)C3)cn1 (stereo partly specified)

Activity calls are given as the source filed them. No cut-off for these calls is given here.
